Key:
Carbonic anhydrase 1 = Carbonic anhydrase 1 (Homo sapiens, UniProt P00915); assay: Inhibitory activity against human carbonic anhydrase I expressed in Escherichia coli
Carbonic anhydrase 13 = Carbonic anhydrase 13 (Mus musculus, UniProt Q9D6N1)
Carbonic anhydrase 2 = Carbonic anhydrase 2 (Homo sapiens, UniProt P00918)

Protein sequences, listed by entry. Tags and fused reporters are not part of them. Lines headed by an entry give the natural chain unless they say otherwise; changes in a name come on top. Residues count along the entry.
UniProt P00915, 2-261 limits assumed: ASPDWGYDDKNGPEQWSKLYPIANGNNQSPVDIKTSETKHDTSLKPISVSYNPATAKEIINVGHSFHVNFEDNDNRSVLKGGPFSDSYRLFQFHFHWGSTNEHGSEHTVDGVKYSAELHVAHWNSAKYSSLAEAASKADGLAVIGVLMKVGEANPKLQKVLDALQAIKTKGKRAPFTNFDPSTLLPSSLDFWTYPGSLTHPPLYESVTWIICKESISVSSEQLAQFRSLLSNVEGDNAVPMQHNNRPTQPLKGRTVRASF
UniProt Q9D6N1: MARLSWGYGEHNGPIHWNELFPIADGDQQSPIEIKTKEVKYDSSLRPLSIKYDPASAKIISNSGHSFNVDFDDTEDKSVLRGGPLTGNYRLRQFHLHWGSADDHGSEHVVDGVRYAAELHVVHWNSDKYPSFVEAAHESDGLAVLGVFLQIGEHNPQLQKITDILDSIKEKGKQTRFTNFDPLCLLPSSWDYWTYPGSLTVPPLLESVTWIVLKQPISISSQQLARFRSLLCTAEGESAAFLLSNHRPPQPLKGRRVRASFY

O[As](O)Oc1ccccc1
Ki (Carbonic anhydrase 1): 31.7 mM
Ki (Carbonic anhydrase 13): 1.65 mM
Ki (Carbonic anhydrase 2): 49.2 mM

Reference: BindingDB's records for 15454240
